Here are results for one molecule from US12246091B2, “Method of encapsulating active ingredients in liposomes” (ABNOBA GMBH, priority 2018, dated 2025).

A short description of this series: Solubility of the amphiphilic compound in the first liquid perfluoroperhydrophenanthrene (C14F24). Conditions: detection limit, Example 4.

The structures appear in SMILES notation.

Turning to `CC(C)CCC[C@@H](C)[C@H]1CC[C@H]2[C@@H]3CC=C4C[C@@H](O)CC[C@]4(C)[C@H]3CC[C@]12C` [cholesterol], the “Stability of cholesterol in C14F24” value was < 10^−5 mol/l.
